## Ab-14 heavy chain CDR variants: yeast mating affinities

All variants were tested on one target, the spike HR2 peptide PDVDLGDISGINAS (SARS-CoV-2).

Parent: Ab-14, a human scFv built as VH, a 15-residue (Gly4Ser)3 linker, VL. Only the CDRs of the heavy chain vary.
VH: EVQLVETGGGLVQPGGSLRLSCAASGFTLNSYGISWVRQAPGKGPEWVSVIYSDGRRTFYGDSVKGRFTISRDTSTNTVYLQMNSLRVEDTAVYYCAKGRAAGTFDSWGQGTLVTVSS
VL: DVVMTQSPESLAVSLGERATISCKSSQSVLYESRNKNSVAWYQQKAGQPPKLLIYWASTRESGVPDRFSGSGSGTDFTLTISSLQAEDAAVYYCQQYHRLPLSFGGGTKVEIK

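The starting antibody came from a phage panning campaign against this peptide. The variants were designed computationally from a first round of random CDR variants and then made and measured. Group labels follow the data file (Ctrl: baseline library sampled from a position-specific scoring matrix, with some repeated check sequences; Rand: our label for a block that the file lists under HC and that is probably the random mutants of the ten best first-round binders; En: ensemble of fine-tuned language models; GP: Gaussian process model; GPLM: also part of the Gaussian process libraries; HC: hill climbing; Gen: genetic algorithm; Gibbs: Gibbs sampling; a sequence that several methods proposed may carry one label only). The scFvs were displayed on barcoded MATa yeast, the peptide on MATalpha yeast. Binding brings cells together so that they mate, and sequencing counts the barcode pairs among the diploids. The ratio of observed to expected reads was calibrated, replicate by replicate, on BCL2-family standards whose Kd was known from biolayer interferometry. The assay was run in six technical replicates.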

Each variant's VH is given in full.
Variants here have at most six changes.
Each Kd is an estimate from the mating assay, the geometric mean of the replicates in which the pair was seen; lower is stronger.
An entry "nd" has no value in the source: the pair was not observed among the diploids in any replicate. This suggests poor binding but is not conclusive.
Order: sorted from the lowest average up, undetected variants last.

The variant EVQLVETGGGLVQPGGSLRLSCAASGFDLNEYGISWVRQAPGKGPEWVSVIYADGRRTFYADSVKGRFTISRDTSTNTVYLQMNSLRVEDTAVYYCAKGEAAGTFDFWGQGTLVTVSS [En_HC] showed 440 pM (6 of 6 replicates). The variant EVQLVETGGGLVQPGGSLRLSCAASGFDLNSYGISWVRQAPGKGPEWVSVIYSDGRRTFYADSVKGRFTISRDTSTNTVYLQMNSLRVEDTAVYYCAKGQVAGTFDSWGQGTLVTVSS [GPLM_Gen] gave 660 pM (6 of 6 replicates). With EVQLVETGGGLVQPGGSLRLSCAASGFTLNQYGISWVRQAPGKGPEWVSVIYSDGRRTAYGDSVKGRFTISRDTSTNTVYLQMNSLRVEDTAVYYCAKGRAAGTFDSWGQGTLVTVSS [GPLM_HC] the result was 960 pM (6 of 6 replicates). The variant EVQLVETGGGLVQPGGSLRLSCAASGFTLNSYGISWVRQAPGKGPEWVSVIYADGRRTFYGDQVKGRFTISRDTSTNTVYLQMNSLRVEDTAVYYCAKGRAAGTFMSWGQGTLVTVSS [GP_HC] gave 1.6 nM (6 of 6 replicates). For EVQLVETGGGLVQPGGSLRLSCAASGFTLNSYGISWVRQAPGKGPEWVSVIYSDGRRTFYIDSVKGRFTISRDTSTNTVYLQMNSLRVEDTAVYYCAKGRIAGTFDTWGQGTLVTVSS [GP_HC], the assay gave 1.7 nM (1 of 6 replicates).

The variant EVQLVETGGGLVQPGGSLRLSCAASGFQLNSYGISWVRQAPGKGPEWVSVIYSDGRRTFYIDSVKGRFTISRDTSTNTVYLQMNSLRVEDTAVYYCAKGNVAGTFDSWGQGTLVTVSS [GP_Gibbs] gave 2.9 nM (1 of 6 replicates). The variant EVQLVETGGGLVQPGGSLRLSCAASGFTLNSYGISWVRQAPGKGPEWVSVIYSDGRRTAYIDSVKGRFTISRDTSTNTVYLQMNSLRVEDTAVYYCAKGQAAGTFDSWGQGTLVTVSS [GPLM_HC] showed 3.9 nM (6 of 6 replicates). For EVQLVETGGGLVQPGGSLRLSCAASGFTLNSYGISWVRQAPGKGPEWVSVIYSDGRRTFYGDSVKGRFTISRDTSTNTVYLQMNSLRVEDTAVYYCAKGRADGTFDSWGQGTLVTVSS [Ctrl], the assay gave 4.7 nM (3 of 6 replicates). The variant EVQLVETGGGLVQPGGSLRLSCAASGFELNSYGISWVRQAPGKGPEWVSVIYSDGRRTFYGDSVKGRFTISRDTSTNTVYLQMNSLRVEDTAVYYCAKGRVAGTFDLWGQGTLVTVSS [GPLM_Gibbs] gave 6.7 nM (6 of 6 replicates). The variant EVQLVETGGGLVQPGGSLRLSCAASGFQLNMYGISWVRQAPGKGPEWVSVIYSDGRRTQYIDSVKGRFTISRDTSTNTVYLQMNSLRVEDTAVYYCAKGRAAGTFDSWGQGTLVTVSS [GP_HC] showed 7.4 nM (2 of 6 replicates).

With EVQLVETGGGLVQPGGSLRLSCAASGFTLESYGIHWVRQAPGKGPEWVSVIYSDGRRTFYQDSVKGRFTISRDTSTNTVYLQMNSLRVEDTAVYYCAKGRAAGTFDSWGQGTLVTVSS [Ctrl] the result was 12 nM (2 of 6 replicates). With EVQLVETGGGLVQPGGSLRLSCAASGFQLNSYGISWVRQAPGKGPEWVSVIYSDGRRTFYADQVKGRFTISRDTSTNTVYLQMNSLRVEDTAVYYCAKGQAAGTFDSWGQGTLVTVSS [GP_Gibbs] the result was 16 nM (5 of 6 replicates). With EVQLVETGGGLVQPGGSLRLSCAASGFDLNSYGISWVRQAPGKGPEWVSVIYSDGTRTFYGDSVKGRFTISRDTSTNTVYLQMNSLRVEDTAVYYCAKGRQAGTFDSWGQGTLVTVSS [GP_Gen] the result was 17 nM (6 of 6 replicates). The variant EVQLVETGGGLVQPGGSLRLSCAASGFHLNSYGISWVRQAPGKGPEWVSVIYSDGRRTFYIDSVKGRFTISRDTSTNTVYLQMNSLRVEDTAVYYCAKGRTAGTFDSWGQGTLVTVSS [GP_Gen] showed 88 nM (4 of 6 replicates). The variant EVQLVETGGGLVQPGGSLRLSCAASGFTLNEYGISWVRQAPGKGPEWVSVIYSDGRRTQYGDSVKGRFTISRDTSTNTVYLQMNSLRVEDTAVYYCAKGRAAGTFVSWGQGTLVTVSS [GP_HC] gave 110 nM (1 of 6 replicates).

With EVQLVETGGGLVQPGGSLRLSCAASGFWLNEYGISWVRQAPGKGPEWVSVIYSDGRRTFYIDSVKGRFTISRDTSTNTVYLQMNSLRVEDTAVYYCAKGRTAGTFDSWGQGTLVTVSS [GPLM_Gen] the result was 210 nM (6 of 6 replicates). For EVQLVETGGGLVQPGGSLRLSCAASGFTLNSYGISWVRQAPGKGPEWVSVIYSDGRRTFYSDSVKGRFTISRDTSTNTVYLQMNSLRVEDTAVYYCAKGRAGGTNDSWGQGTLVTVSS [Rand], the assay gave nd (0 of 6 replicates). The variant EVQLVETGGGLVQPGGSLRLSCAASGFTLNSYHISWVRQAPGKGPEWVSVIYSDNRRTFYDDSVKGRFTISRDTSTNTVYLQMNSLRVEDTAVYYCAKGQLAGTFDSWGQGTLVTVSS [Rand] showed nd (0 of 6 replicates). The variant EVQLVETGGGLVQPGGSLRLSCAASGFTLNSYGISWVRQAPGKGPEWVSVIYSDGRRTFYSDSVKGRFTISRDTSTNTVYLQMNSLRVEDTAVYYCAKGRAALFFDSWGQGTLVTVSS [Ctrl] gave nd (0 of 6 replicates). The variant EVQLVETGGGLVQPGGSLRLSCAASGFDLNSYGISWVRQAPGKGPEWVSVIYSDGRRTFYGDSVKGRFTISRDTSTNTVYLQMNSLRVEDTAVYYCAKGRAAGHFMSWGQGTLVTVSS [GPLM_HC] gave nd (0 of 6 replicates).

The variant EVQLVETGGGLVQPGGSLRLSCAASGFTLESYGISWVRQAPGKGPEWVSVIYSDGQRTFYGDSVKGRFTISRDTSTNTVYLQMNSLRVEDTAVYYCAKGRAGSTFDSWGQGTLVTVSS [Ctrl] gave nd (0 of 6 replicates). With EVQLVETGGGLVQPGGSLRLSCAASGDTLNSYGISWVRQAPGKGPEWVSVIYADGRRTFYYDSVKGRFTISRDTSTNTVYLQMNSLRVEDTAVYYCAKGRAAGTFDFWGQGTLVTVSS [Ctrl] the result was nd (0 of 6 replicates). With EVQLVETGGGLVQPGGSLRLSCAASGFDLNSYGISWVRQAPGKGPEWVSVIYSDGRRTFYGDSVKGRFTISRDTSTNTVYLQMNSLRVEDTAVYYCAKGRAAGLFWSWGQGTLVTVSS [GPLM_HC] the result was nd (0 of 6 replicates). The variant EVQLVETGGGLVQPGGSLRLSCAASGFTLNVYGISWVRQAPGKGPEWVSVIYSDGLQTFYTDSVKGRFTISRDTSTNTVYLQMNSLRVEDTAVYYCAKGRFAGTFDSWGQGTLVTVSS [Rand] gave nd (0 of 6 replicates).

For reference, 2 entries of the list once more:

| VH | group | Kd | detected |
|---|---|---|---|
| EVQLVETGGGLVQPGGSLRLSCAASGFTLNSYHISWVRQAPGKGPEWVSVIYSDNRRTFYDDSVKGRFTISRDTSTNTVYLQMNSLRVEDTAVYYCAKGQLAGTFDSWGQGTLVTVSS | Rand | nd | 0/6 |
| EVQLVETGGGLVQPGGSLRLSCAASGFELNSYGISWVRQAPGKGPEWVSVIYSDGRRTFYGDSVKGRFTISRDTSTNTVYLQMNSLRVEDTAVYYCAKGRVAGTFDLWGQGTLVTVSS | GPLM_Gibbs | 6.7 nM | 6/6 |

The authors' rule: three or more of the six replicates give a measured affinity, fewer mean a poor binder.
Empty control strains, which show no peptide, gave a signal in 1% of pairings with all heavy chain designs; the median was 120 nM and 95% of these signals were weaker than 7.0 nM. No background was subtracted.
Values of this round are not directly comparable with the first-round values of the same sequences.
The parent sequence was in this pool as ten entries: three were never detected, three once, and four in most replicates, with averages from 2.2 nM to 240 nM.

From the AlphaSeq antibody data of Li et al. 2023 (doi:10.1038/s41467-023-39022-2), copy in the FLAb collection.